Tested on: B16
Test: Antitumor activity against mouse B16 cells allografted in BDF mouse assessed as increase in life span at 12.5 mg/kg, ip administered for 9 days relative to untreated control

ClCCN(CCCl)c1ccccc1
T/C: 159%
